{"source": "patent US5013539A", "about": "“Method and composition for antagonism of sodium nitroprusside toxic effects” (dated 1991)", "key": {"[1]": {"tested_on": "Male ICR mice", "details": "group B alpha-ketoglutaric acid vs group A control"}, "[2]": {"tested_on": "sodium nitroprusside-induced lethality", "experiment": "Alpha-ketoglutaric acid pretreatment times against sodium nitroprusside-induced lethality", "details": "2 g alpha-ketoglutaric acid/kg 5, 10, and 15 minutes prior to LD85 dose of sodium nitroprusside; P<0.05"}, "[3]": {"tested_on": "cyanide-induced lethality", "experiment": "Alpha-ketoglutaric acid administered after potassium cyanide (KCN) administration, lethality", "details": "control 80% dead, P<0.05 vs control"}}, "data": [{"smiles": "O=C(O)CCC(=O)C(=O)O", "values": [{"measurement": "Potency Ratio (LD50 of KCN, alpha-ketoglutaric acid pretreated over saline control)", "setting": "[1]", "result": "five fold increase"}, {"measurement": "antagonism of sodium nitroprusside-induced lethality", "setting": "[2]", "result": "significantly protected"}, {"measurement": "Percentage Dead", "setting": "[3]; alpha-ketoglutaric acid given 15 sec after KCN injection", "result": 10, "unit": "%"}, {"measurement": "Percentage Dead", "setting": "[3]; alpha-ketoglutaric acid given 25 sec after KCN injection", "result": 0, "unit": "%"}, {"measurement": "Percentage Dead", "setting": "[3]; alpha-ketoglutaric acid given 55 sec after KCN injection", "result": 10, "unit": "%"}]}]}
